{"source": "patent US5585353A", "about": "“Antibiotic peptides containing D-amino acids” (The Rockefeller University, priority 1994, dated 1996)", "assay_type_in_all_cases": "cell-based", "key": {"E. coli D21": {"test_system": "E. coli D21", "test": "inhibition zone assay, lethal concentration", "conditions": "E. coli D21, thin agarose plates", "method": "(§1) Thin agar or agarose plates (8.5 cm diameter) were prepared with 6 ml of rich medium containing 100 ug/ml of streptomycin and 2×10^5 viable cells of a test organism resistant to streptomycin. Wells of 3.5 mm diameter were punched in the plates and 3 ul of serially diluted samples were placed in the wells. The diameters of the zones of inhibition around the wells were measured after overnight incubation at 30° or 37° C. For each peptide the squares of the zone diameters were plotted against the logarithm of the concentration, and from the slopes and intercepts the lethal concentrations were calculated as described by Hultmark (1983) EMBO J. 2, 571-76 or Hultmark et al (1982) Eur. J. Biochem. 127 207-217 each of which being incorporated herein by reference.\n(§2) Lethal Concentrations calculated from inhibition zones on thin agarose\n(§3) plates seeded with the respective organisms. D21: E. coli; OT97: P."}, "P. aeruginosa OT97": {"test_system": "P. aeruginosa OT97", "test": "inhibition zone assay, lethal concentration", "conditions": "P. aeruginosa OT97, thin agarose plates", "method": "as §1, §2, §3\n(§4) aeruginosa; Bs11: B. subtilis; +ME: plates prepared with medium E; Staph: […]"}, "Sheep red cells": {"test_system": "Sheep red cells", "test": "inhibition zone assay, lethal concentration on sheep red cells", "conditions": "thin agarose plates", "method": "as §1, §2\n(§5) S. aureus Cowan 1; Strep: S. pyogenes; SRC: Sheep red cells.; *all amino"}, "S. pyogenes": {"test_system": "S. pyogenes", "test": "inhibition zone assay, lethal concentration", "conditions": "thin agarose plates", "method": "as §1, §2, §5"}, "B. subtilis Bs11": {"test_system": "B. subtilis Bs11", "test": "inhibition zone assay, lethal concentration", "method": "as §1, §2, §4"}, "S. aureus Cowan 1": {"test_system": "S. aureus Cowan 1", "test": "inhibition zone assay, lethal concentration", "conditions": "S. aureus Cowan 1, thin agarose plates", "method": "as §1, §2\naeruginosa; Bs11: B. subtilis; +ME: plates prepared with medium E; Staph:\nas §5"}}}
{"smiles": "CC[C@@H](C)[C@@H](NC(=O)CN)C(=O)NCC(=O)N[C@H](C)C(=O)N[C@@H](C(=O)N[C@H](CC(C)C)C(=O)N[C@H](CCCCN)C(=O)N[C@@H](C(=O)N[C@H](CC(C)C)C(=O)N[C@@H](C(=O)N[C@@H](C(=O)NCC(=O)N[C@H](CC(C)C)C(=O)N1CCC[C@@H]1C(=O)N[C@H](C)C(=O)N[C@H](CC(C)C)C(=O)N[C@@H](C(=O)N[C@H](CO)C(=O)N[C@H](Cc1c[nH]c2ccccc12)C(=O)N[C@@H](C(=O)N[C@H](CCCCN)C(=O)N[C@H](CCCNC(=N)N)C(=O)N[C@H](CCCCN)C(=O)N[C@H](CCCNC(=N)N)C(=O)N[C@H](CCC(N)=O)C(=O)N[C@H](CCC(N)=O)C(N)=O)[C@H](C)CC)[C@H](C)CC)[C@H](C)O)[C@H](C)O)C(C)C)C(C)C", "note": "[Compound 11]", "values": [{"measurement": "Lethal Concentrations D21", "setting": "E. coli D21", "value": 1, "unit": "µM"}, {"measurement": "Lethal Concentrations OT97", "setting": "P. aeruginosa OT97", "value": 2, "unit": "µM"}, {"measurement": "Lethal Concentrations SRC", "setting": "Sheep red cells", "value": "2 to 3", "unit": "µM"}, {"measurement": "Lethal Concentrations Strep", "setting": "S. pyogenes", "value": 0.9, "unit": "µM"}, {"measurement": "Lethal Concentrations Bs11 +ME", "setting": "B. subtilis Bs11; B. subtilis Bs11, plates prepared with medium E", "value": 0.3, "unit": "µM"}, {"measurement": "Lethal Concentrations Bs11", "setting": "B. subtilis Bs11; B. subtilis Bs11, thin agarose plates", "value": 0.4, "unit": "µM"}, {"measurement": "Lethal Concentrations Staph", "setting": "S. aureus Cowan 1", "value": 0.1, "unit": "µM"}]}
